Test results: patent US11596716B2, “Compounds and matrices for use in bone growth and repair” (Human BioMolecular Research Institute, priority 2013, dated 2023)

Test system: C2C12 cells
Experiment: Alkaline Phosphatase (ALP) functional activity assay in C2C12 cells
Format: cell-based, Mouse
Details: 500 nM, 6 days of culture
Experimental: Alkaline Phosphatase (ALP) Functional Activity Assay: C2C12 cells were plated into 12-well plates with 7,000 cells/well in 1 mL growth media. […] 1, 2, 3, or 4 in 0.1% DMSO was added (500 nM). Half the media was exchanged with fresh media containing compound every 48 hrs. After 6 days, media was removed, ALP Lysis Buffer (10 mM Tris-HCl pH 8.0, 1 mM MgCl2, and 1% Triton X100) added, and cell lysate obtained (10 min incubation at RT) by centrifugation (5 min at 3500× g at 4° C.). Para-nitrophenol phosphate (pNPP) (2 mg/mL) was incubated with 50 μl cell lysate (10 mins, 37° C.). After addition of […] 0.02 N NaOH, absorbance OD405 was measured. Protein concentration was determined by Bradford protein assay. Results of ALP activity were plotted as nM pNP hydrolyzed/mg total protein. After normalizing control samples (i.e., DMSO-treated samples) to one-fold, the fold-changes were plotted to indicate the relative ALP activity. […] This protocol was applied to hMSC and E15 cells as well.

B1: rhBMP-2: bone morphogenetic protein-2 (BMP-2) that is a potent cell differentiation factor; recombinant reference in Table 8 (protein, UniProt P12643 283-396, looked up)
Bone morphogenetic protein 2: QAKHKQRKRLKSSCKRHPLYVDFSDVGWNDWIVAPPGYHAFYCHGECPFPLADHLNSTNHAIVQTLVNSVNSKIPKACCVPTELSAISMLYLDENEKVVLKNYQDMVVEGCGCR
B1 was tested, and the “ALP activity fold-changes +/− SD, −matrix” value (absence of matrix, versus untreated (DMSO) cells) was 4.0 ± 0.4 fold and the “ALP activity fold-changes +/− SD, +matrix” value (calcium phosphate ceramic 5 mg/mL) was 7.1 ± 0.7 fold.
